Experimental data as given in US8946382B2, “Apelin peptides and methods of use” (The United States of America, as represented by the …, priority 2009, dated 2015).
“Also recorded” adds a separate entry of the source.

Test system: porcine aortic endothelial (PAE) cells
Assay: Proliferation assay (ATPLITE), PAE
Type: cell-based
Settings: FIG. 13B, listed as apelin-13(F13A)
Text: Proliferation response profiles of apelin, salcut-NH2, salcut-Gly, and/or salcut-OH on a variety of endothelial and tumor cell lines or primary endothelial cells were obtained using the following method. Human blood vessel endothelial cells (HMEC-1), human primary microvascular dermal EC (dB1), human lymphatic endothelial cells (LEC), human mast cells (HMC-1), human breast cancer cells (MCF-7; T47D), human gastric cancer cells (HTB 103), human lung cancer cells (A549), monkey endothelial cells (CRL 1780), and porcine aortic endothelial cells (PAE) were seeded at 25,000 cells per well at 50 μl volume in appropriate media containing 0.5% serum in a 96 well plate. After overnight incubation the peptide was added in serum free media and cells were incubated for 3-5 days. To measure growth proliferation, the adenosine triphosphate ATPLITE™ one-step assay (PerkinElmer), which is based on firefly luciferase and has high sensitivity for quantification of viable cells, was used. Data were expressed as mean plus minus standard deviation. Statistical analyses were performed using Student's t-test, p values less than 0.05 were considered statistically significant.
Endothelial cell proliferation assays were performed as described above with both spontaneously immortalized porcine aortic endothelial (PAE) cells and SV40 immortalized human dermal microvascular endothelial (HMEC-1).

(Ala13)-apelin-13
effect of APJ antagonist on Salcut-NH2 regulated proliferation: but not salcut-NH2 mediated growth; also recorded: is not blocked by apelin-13(F13A)
